PubChem BioAssay (NCATS)
The entries are a selection whose mix differs from that of the whole data set. Inconclusive results are not listed. Calls of active or inactive are those of the source. Unless noted, calls come from the whole dose curve; as a rule, active = well fitted curve in the direction sought with a large enough effect; inconclusive = small, poorly fitted or top-dose-only effect, or another doubt; inactive = no such curve, though single readings can be large; an effect the other way counts as inactive or inconclusive.

Protein sequences, listed by entry. Tags and fused reporters are not part of them. Lines headed by an entry give the natural chain unless they say otherwise; changes in a name come on top.
UniProt P27695, whole entry, looked up: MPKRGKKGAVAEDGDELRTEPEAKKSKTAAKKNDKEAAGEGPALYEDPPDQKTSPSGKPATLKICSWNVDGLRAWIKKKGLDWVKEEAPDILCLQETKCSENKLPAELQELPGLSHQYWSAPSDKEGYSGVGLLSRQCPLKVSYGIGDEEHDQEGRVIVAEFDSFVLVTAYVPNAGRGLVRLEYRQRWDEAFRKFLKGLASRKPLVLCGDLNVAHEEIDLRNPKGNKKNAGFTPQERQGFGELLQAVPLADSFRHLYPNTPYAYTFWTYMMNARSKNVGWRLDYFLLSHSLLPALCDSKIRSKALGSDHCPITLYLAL
UniProt P02791: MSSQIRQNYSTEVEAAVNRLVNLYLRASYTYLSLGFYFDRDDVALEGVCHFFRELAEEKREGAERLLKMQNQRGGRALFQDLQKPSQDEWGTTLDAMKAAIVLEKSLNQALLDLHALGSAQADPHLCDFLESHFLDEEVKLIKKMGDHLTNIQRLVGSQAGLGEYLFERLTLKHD
UniProt P46063: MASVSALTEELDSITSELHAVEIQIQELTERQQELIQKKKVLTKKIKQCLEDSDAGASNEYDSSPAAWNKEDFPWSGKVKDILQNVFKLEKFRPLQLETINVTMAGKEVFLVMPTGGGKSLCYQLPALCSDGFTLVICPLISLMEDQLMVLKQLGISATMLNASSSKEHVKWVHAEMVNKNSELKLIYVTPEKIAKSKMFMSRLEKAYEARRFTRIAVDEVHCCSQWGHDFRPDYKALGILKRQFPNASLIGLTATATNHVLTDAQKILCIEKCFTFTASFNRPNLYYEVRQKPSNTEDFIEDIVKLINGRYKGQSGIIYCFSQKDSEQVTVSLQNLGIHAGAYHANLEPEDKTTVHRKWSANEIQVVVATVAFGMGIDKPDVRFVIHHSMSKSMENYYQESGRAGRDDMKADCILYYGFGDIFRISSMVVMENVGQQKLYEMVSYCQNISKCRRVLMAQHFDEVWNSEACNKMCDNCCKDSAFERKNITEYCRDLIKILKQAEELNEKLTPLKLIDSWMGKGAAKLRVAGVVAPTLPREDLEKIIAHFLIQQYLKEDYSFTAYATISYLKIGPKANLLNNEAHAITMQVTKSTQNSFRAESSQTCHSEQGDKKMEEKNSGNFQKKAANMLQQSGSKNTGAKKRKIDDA
UniProt O75604: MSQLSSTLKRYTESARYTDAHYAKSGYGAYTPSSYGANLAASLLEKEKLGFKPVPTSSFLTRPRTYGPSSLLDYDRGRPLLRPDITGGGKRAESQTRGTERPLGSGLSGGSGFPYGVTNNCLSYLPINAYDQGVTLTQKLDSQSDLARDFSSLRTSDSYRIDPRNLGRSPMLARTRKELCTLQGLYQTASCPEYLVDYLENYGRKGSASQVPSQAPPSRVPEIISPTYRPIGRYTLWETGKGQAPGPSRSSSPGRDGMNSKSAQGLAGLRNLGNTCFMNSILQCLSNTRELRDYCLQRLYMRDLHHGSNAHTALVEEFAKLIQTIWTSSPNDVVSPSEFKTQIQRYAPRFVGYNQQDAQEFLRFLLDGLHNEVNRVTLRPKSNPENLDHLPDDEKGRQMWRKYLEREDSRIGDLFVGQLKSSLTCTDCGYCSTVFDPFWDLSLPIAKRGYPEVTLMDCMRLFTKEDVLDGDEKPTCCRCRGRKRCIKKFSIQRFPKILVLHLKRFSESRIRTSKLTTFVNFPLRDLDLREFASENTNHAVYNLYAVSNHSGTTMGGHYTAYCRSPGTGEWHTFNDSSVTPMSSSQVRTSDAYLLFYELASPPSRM
UniProt O89049, whole entry, looked up: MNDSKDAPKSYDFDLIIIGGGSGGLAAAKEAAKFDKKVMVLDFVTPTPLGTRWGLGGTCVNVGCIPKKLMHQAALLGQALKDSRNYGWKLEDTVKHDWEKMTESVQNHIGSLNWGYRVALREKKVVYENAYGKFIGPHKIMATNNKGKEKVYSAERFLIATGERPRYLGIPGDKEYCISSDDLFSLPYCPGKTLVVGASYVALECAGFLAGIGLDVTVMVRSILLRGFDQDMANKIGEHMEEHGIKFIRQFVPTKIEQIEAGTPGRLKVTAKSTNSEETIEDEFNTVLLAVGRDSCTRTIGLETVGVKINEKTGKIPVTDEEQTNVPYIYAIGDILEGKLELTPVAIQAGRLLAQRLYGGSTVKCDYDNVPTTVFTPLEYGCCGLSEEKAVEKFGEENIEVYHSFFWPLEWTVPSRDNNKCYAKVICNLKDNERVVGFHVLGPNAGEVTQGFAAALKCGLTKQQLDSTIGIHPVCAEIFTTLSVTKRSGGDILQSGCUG
UniProt P39748, whole entry, looked up: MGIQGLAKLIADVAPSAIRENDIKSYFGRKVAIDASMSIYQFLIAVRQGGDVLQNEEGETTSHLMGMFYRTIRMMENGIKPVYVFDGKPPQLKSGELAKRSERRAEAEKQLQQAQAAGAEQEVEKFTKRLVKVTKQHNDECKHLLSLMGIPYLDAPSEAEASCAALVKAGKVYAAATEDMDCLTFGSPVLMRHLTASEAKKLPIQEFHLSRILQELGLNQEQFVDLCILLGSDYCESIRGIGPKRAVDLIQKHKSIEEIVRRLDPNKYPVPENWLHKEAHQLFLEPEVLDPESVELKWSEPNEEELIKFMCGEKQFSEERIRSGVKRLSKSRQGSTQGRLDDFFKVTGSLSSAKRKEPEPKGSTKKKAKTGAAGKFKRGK

Legend:
[1] = qHTS Assay for Lipid Storage Modulators (AID 1519; calls by dose curve; note: % is set by controls: 0 for no effect and ±100 for the full control effect); conditions: Drosophila S3 cells, BODIPY lipid droplet/cell ratio, laser cytometry, cells loaded with oleic acid; at 57.5 µM (top of the series)
[2] = molecular target: DNA repair nuclease/redox regulator APEX1 (Homo sapiens) (UniProt P27695); test: qHTS Validation Assay for Inhibitors of the Human Apurinic/apyrimidinic Endonuclease 1 (APE1) (AID 1705;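 note: TAMRA fluorescence gain over two minutes as APE1 cuts a quenched THF abasic duplex; % is set by controls: 0 for no effect and ±100 for the full control effect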); conditions: purified APE1 endonuclease activity, fluorescence, titration; at 57.1 µM (top of the series)
Method in brief: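 Read-out: TAMRA fluorescence (525 nm ex, 598 nm em) from cleavage of a quenched THF abasic-site duplex, 50 nM final; activity taken as intensity change between third and first of three reads 60 s apart.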

[3] = Counterscreen for APE1 Inhibitors: Fluorescent Dye Displacement Validation Assay (AID 1707); conditions: fluorescent dye displacement from DNA; at 57.1 µM (top of the series);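 note: plate controls were ThO with dsDNA and no compound for no effect and ThO without dsDNA for full effect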
Method in brief: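 Compounds are scored by their ability to displace Thiazole Orange (250 nM) from a 50 nM TAMRA-tagged duplex bearing a tetrahydrofuran abasic site. Buffer is 50 mM Tris-HCl pH7.5, 50mM NaCl, 2 mM MgCl2, 0.01% Tween-20.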

[4] = molecular target: Ferritin light chain (Equus caballus) (UniProt P02791); test: qHTS Validation Assay for Identification of Novel General Anesthetics (AID 2323); conditions: horse apoferritin, anesthetic-site fluorescent probe displacement; at 76.9 µM (top of the series); note: % is set by controls: 0 for no effect and ±100 for the full control effect
Method in brief: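 10 uM horse-spleen apoferritin + 1-AMA (50% saturated, PBS); cpd pin-transferred, 10 min RT. Ex 380/Em 535 nm endpoint. Activity normalized between free 1-AMA and 1-AMA/apoferritin; 4-parameter Hill fit of concentration-response.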

[5] = molecular target: ATP-dependent DNA helicase Q1 (Homo sapiens) (UniProt P46063); test: qHTS Validation Assay for Inhibitors of RecQ-Like Dna Helicase 1 (RECQ1) (AID 2353); conditions: recombinant RECQ1 helicase DNA unwinding assay; at 25.6 µM (top of the series);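 note: plate controls were DMSO vehicle for no effect and enzyme-free control for full effect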
Method in brief: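 50 nM RECQ1T1 preincubated 15 min with compound in Tris pH 8.0 buffer with MgCl2, DTT, Tween-20 and 2.5 ug/ml poly(dI-dC); started with 200 nM TAMRA/BHQ-2 forked duplex and 2 mM ATP. Unwinding read as fluorescence (525/598 nm), two reads 2 h apart.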

[6] = Cytometric Cell-Based qHTS for Inhibitors of the mTORC1 Signaling Pathway in MEF (Tsc2-/-, p53-/-) Cells (AID 2660); conditions: mTORC1 pathway cytometry; at 38.3 µM (top of the series);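 note: Tsc2 and p53 null MEFs carrying empty vector with compound for 24 h; percent of cells above a phospho-rpS6 to PI ratio cutoff in each well; plate controls were DMSO for no effect and rapamycin for full effect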
Method in brief: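 Immunofluorescence qHTS of rpS6 Ser235/236 phosphorylation: MEFs (Tsc2-/-, p53-/-) treated 24 h, 37 C, in DMEM + 10% FBS. Alexa-488 signal normalized to PI count, referenced to rapamycin (7.5 nM) and DMSO; PI cell number recorded for viability.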

[7] = High Content Imaging Cell-Based qHTS for Inhibitors of the mTORC1 Signaling Pathway in MEF (Tsc2-/-, p53-/-) Cells (AID 2666); conditions: at 38.3 µM (top of the series);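 note: percent of cells scored positive for phospho-rpS6 Ser235/236 immunostaining by imaging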
Method in brief: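 Cells were plated, dosed with compound after 24 hrs, and incubated another 24 hrs at 37 degree Celsius. Fixed cells were immunostained for phospho-rpS6 Ser235/236 and counterstained, and the normalized signal was scored as % active cells against rapamycin and DMSO controls.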

[8] = Validation screen for small molecules that induce DNA re-replication in MCF 10A normal breast cells (AID 463097); conditions: MCF 10A cells, DNA re-replication phenotype imaging; at 46.1 µM (top of the series); note: 0% is about no effect; nearly all actives have a fitted effect of over 60% in size
Method in brief: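 250 MCF 10A cells/well; compound pin-transferred; 48 hr, 37 C, 5% CO2; Hoechst 40 min; imaged 405/500-530 nm. Hits = more high-intensity nuclei.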

[9] = molecular target: Ubiquitin carboxyl-terminal hydrolase 2 (Homo sapiens) (UniProt O75604); test: qHTS Validation Assay for Inhibitors of Ubiquitin-specific Protease USP2a Using CHOP2 as the Reporter (AID 463106); conditions: USP2a cleavage of CHOP2 reporter, enzymatic; at 38.3 µM (top of the series);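 note: plate controls were DMSO for no effect and full inhibition by NEM for full effect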
Method in brief: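 10nM USP2 core + cpd, 30min RT; add 25nM Ub-CHOP2/25nM substrate; 60min RT; FI 485/531nm. Buffer Tris pH 8.0, CaCl2, BME, CHAPS. Norm. to NEM = 100% inhibition; time-zero read flags fluorescent artifacts.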

[10] = qHTS Validation Assay to Find Inhibitors of Chronic Active B-Cell Receptor Signaling (AID 485345; active = well fitted curve in the direction sought with a large enough effect in the main read-out, with a control signal flat, not every such curve was filed as active;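 note: 0% = untreated basal cells and 100% = 10 µM MG-132 proteasome inhibitor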); conditions: ABC-DLBCL cells, chronic BCR signaling reporter, CBG luciferase; at 46.1 µM (top of the series)
Method in brief: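 Read-out: ratio of filter-corrected green (IkappaBalpha fusion) to red (native) luciferase signal in doxycycline-induced TMD8 cells after 4 h at 37C. Titration spanned 46 uM–3 nM; Data were normalised to basal cells and 10 uM MG-132 wells.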

[11] = molecular target: Beta-2 adrenergic receptor (Homo sapiens) (UniProt P07550); test: qHTS validation assay of beta-arrestin-biased ligands of beta2-adrenergic receptor (AID 485366); conditions: cell-based beta-arrestin recruitment to ADRB2, qHTS; at 46.1 µM (top of the series); note: 0% is about no effect
Method in brief: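 Arrestin-recruitment (Tango) reporter: ligand-bound beta2-AR recruits beta-arrestin, releasing tTA, which upregulates luciferase. Titrations of up to 46 microM incubated 18 hr at 37 degrees C before luminescent readout.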

[12] = molecular target: Thioredoxin reductase 1, cytoplasmic (Rattus norvegicus) (UniProt O89049); test: qHTS Assay for Substrates of Mammalian Selenoprotein Thioredoxin Reductase 1 (TrxR1) (AID 488772); conditions: purified TrxR1, NADPH consumption substrate assay; at 57.1 µM (top of the series);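 note: NADPH fluorescence in the first read after selenite addition and not the 8 min delta; 0% is about no effect; a drop in NADPH fluorescence below the no-compound background marks a TrxR1 substrate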
Method in brief: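 Quantitative HTS in Tris-HCl buffer at pH 7.5 with EDTA and Tween-20, using rat TrxR1, 400 uM NADPH and 400 uM selenite (final). A fall in initial NADPH fluorescence relative to background marked substrate behaviour.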

[13] = molecular target: Thioredoxin reductase 1, cytoplasmic (Rattus norvegicus) (UniProt O89049); test: qHTS Assay for Inhibitors of Mammalian Selenoprotein Thioredoxin Reductase 1 (TrxR1) (AID 488773); conditions: purified TrxR1 enzyme activity; at 57.1 µM (top of the series);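 note: drop in NADPH fluorescence over an 8 min run after selenite addition; % is set by controls: 0 for no effect and ±100 for the full control effect; nearly all actives have a fitted effect of over 40% in size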
Method in brief: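 Steps: enzyme (90 nM) plus NADPH (400 uM final), 5 min at ~22 deg C; compound added, 15 min; selenite (400 uM final) added; fluorescence followed for 8 min. Concentration-response curves derived from the normalized delta values.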

[14] = molecular target: Flap endonuclease 1 (Homo sapiens) (UniProt P39748); test: qHTS Validation Assay for the Inhibitors of Human Flap endonuclease 1 (FEN1) (AID 488816); conditions: FEN1 nuclease activity, fluorogenic DNA substrate; at 57.1 µM (top of the series); note: % is set by controls: 0 for no effect and ±100 for the full control effect
Method in brief: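 Readings taken at 0 and 15 min after starting the reaction with 50 nM (final) substrate supplied the signal. Compounds had first sat with 10 nM FEN1 reagent for 15 min at room temperature. Values come from Hill-equation concentration-response fits.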

CN(C(=O)Cc1ccccc1)[C@@H]1CC[C@]2(CCCO2)C[C@H]1N1CCCC1
inactive: activity change, negative = inhibition [1] 3.89% | activity change, negative = inhibition [2] 2.38% | activity change, negative = inhibition [3] 16.9% | activity change, negative = inhibition [4] -8.47% | activity change, negative = inhibition [5] -0.703% | activity change, negative = inhibition [6] 7.37% | outcome [7] | re-replication induction [8] 1.9% | activity, negative = inhibition [9] -0.613% | activity change [10] -3.96% | activation [11] 0.352% | activity change, negative = NADPH consumption [12] 1.92% | activity change, negative = inhibition [13] -23.4% | activity, negative = inhibition [14] -8.24%
